Inhibition data for 4 compounds are collected here from PubChem BioAssay AID652136 (The Scripps Research Institute Molecular Screening Center, 2013).

Only a part is listed here, and it is no random draw. Activity calls are given as the source filed them.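 How the source made its calls: active means inhibition above the mean of all tested compounds plus 3 SD (cut at about 3% in these data); inactive means the rest.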

The term inhibition denotes the relative decrease from the control value, in per cent.

The nature of the experiment: SF-1 AF-2 mutant transactivation artefacts – cell-based, luminescence, counter-screen for DAX1 inhibitor project (AID 652136).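 Further: 0% = DAX-1 transfected cells with DMSO and 100% = cells without DAX-1 with DMSO.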 The settings on record: HEK293 StAR-luciferase, SF-1 AF2 mutant, at 6.8 µM, hits give high values. A general note: Counterscreens check selectivity or assay interference.
As to `CN(C)c1ccc(C(=O)NCC2(N3CCCCC3)CCCCC2)cc1`, the inhibition was active: 5.09%.

On to `O=C(NCC1(N2CCCCC2)CCCCC1)c1ccc(=O)[nH]c1`, for which the inhibition is active: 5.79%.

With `O=C(NCC1(N2CCCCC2)CCCCC1)c1ccc(Cl)nc1`, the inhibition is active: 3.81%.

For the compound `CSc1ccc(C(=O)NCC2(N3CCOCC3)CCCCC2)cc1`, the inhibition was inactive: 2.04%.
